# Values quoted from earlier work, collected in patent US6713048B2, “Δ9 tetrahydrocannabinol (Δ9 THC) solution metered dose inhalers and methods of use” (Virginia Commonwealth University, priority 1998, dated 2004).
# By UniProt entry, the sequences of proteins in these tests, tags left out.
# UniProt P47746, whole entry: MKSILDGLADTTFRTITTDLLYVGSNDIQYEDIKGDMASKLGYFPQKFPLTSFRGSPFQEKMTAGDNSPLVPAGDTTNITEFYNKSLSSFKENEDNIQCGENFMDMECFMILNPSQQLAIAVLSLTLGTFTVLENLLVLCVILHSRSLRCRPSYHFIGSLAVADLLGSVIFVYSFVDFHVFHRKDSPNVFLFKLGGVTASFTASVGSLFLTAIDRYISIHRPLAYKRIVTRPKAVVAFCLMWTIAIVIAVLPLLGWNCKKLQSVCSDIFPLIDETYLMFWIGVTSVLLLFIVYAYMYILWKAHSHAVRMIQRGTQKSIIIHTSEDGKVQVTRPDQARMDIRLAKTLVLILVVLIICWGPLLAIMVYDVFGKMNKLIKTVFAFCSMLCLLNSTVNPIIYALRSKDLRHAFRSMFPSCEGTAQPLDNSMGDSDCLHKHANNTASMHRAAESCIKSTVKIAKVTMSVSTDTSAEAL
# Experiments:
# [1] = biological target: brain cannabinoid receptor (Mus musculus, UniProt P47746); settings: injection of WIN 55,212-2 (Rinaldi-Carmona et al., 1994); cited from earlier work
# cannabinoid receptor = cannabinoid receptor (Mus musculus, UniProt P47746); settings: injection of Δ^9-THC (Compton et al., 1996); cited from earlier work
compound,measurement,setting,value
Cc1c(C(=O)NN2CCCCC2)nn(-c2ccc(Cl)cc2Cl)c1-c1ccc(Cl)cc1 [SR 141716A],ED50 in antagonizing antinociceptive effects,[1],1.6 mg/kg
same,ED50 in antagonizing antinociceptive effects,cannabinoid receptor,0.4 mg/kg
